Columns and labels:
[1] = Mesophase behaviour by polarized optical microscopy (POM); format: physicochemical; details: for Appearance of the Lyotropic phase at excess water (25° C.-50° C.): POM, equilibration 1 h; for POM observation on exposure to water: 25° C. and 37° C.
Procedure: Polarized Optical Microscopy (POM): Samples used for Polarized Optical Microscopy (POM) were prepared by placing a small amount of prodrug amphiphile on a microscope slide and covered with a cover slip. Water was placed on the edges of the cover slip and allowed to flow into the sample by capillary action. The microscope slide was placed in a Linkam PE94 hot stage (Linkam Scientific Instruments Ltd. Surrey, England) and heated at 3° C./min between room temperature and 50° C. […] Images were captured with a Nikon DS-Ri-1 camera. All images were taken at 100× magnification.
The formation of lyotropic mesophases is based on the interaction of the prodrug amphiphile with water. Polarized optical microscopy was used to study the liquid crystalline or crystalline structures of the prodrug amphiphiles. This method was used as a preliminary and qualitative investigation to observe the morphological changes of the amphiphile as well as to predict the structural changes of the mesophases which may form upon hydration with water. For each prodrug amphiphile, a small amount of the neat and dry sample was placed on a microscope slide and covered with a cover slip. Water was placed on the edges of the cover slip to allow to flow into the sample by capillary action. Images were captured at 25° C. before and after the addition of water and at 37° C. after exposure to water. 37° C. was selected due to its physiological relevance. […]

[2] = Reduction kinetics of Pt (IV) prodrug nanoparticles with ascorbic acid (LC-MS); format: in vitro ADME; details: ascorbic acid as reducing agent, up to 24 h
Procedure: The reducing agent was applied at concentrations corresponding to those found in the living cells' environment, e.g. 1 mM ascorbic acid or 2 mM glutathione (GSH).
Dispersed nanoparticles of Pt (IV) prodrug amphiphiles were mixed with GSH, ascorbic acid or their combination. The ratios of the reducing agents to platinum prodrugs were 10:1 or 50:1 for ascorbic acid and 20:1 for GSH. The reduction kinetics was analysed by LC-MS via monitoring the peaks related to each prodrug amphiphile. The prodrugs were detected by negative ions optimised for each platinum amphiphile. The reduction kinetics was plotted as the percentage of the area under the peak of Pt (IV)-prodrug compared to the peak before the addition of the reducing agent against the time of incubation. At each time point 10 μl of a sample withdrawn from the reaction solution was injected directly into a Phenomenex C8 150 mm×2 mm 5 μm Luna column (Phenomenex, Australia). A 100% Methanol solution was used as the mobile phase with a flow rate of 0.5 ml/min for 8 minutes. The sample after the column separation was eluted to the ESI source. […] The samples were well maintained at a temperature of 37° C. during the entire measurement by incubation in the temperature-controlled auto-sampler. Data was acquired and processed with Xcalibur Quan chromatography software.

[3] = SAXS of neat and hydrated amphiphiles (phase, lattice parameter); format: physicochemical; details: for lattice parameter, neat non-hydrated: temperature not printed
Procedure: SAXS analyses of the bulk and lyotropic phases of the amphiphiles were performed on a Bruker NanoSTAR laboratory SAXS instrument (Brucker AXS, Kalsruhe, Germany).
(§1) The equilibrated lyotropic phases were placed into a demountable button sample cell. For the analysis of the dispersions, a multi-capillary holder was used. Button cells and capillary holder interchangeably fit into a block setup that was temperature-controlled with a Peltier heater-cooler system. 2D scattering images were radially averaged to conventional 1 D scattering plots and as a function of the q value (Å^−1) where q is the length of the scattering vector which was calculated using the formula q=(4π/λ) sin(θ/2), where λ is the wavelength and θ is the scattering angle.
Small angle X-ray scattering patterns of emulsions and liposomes display large broad peaks while liquid crystalline phases of highly ordered nanostructured particles such as cubosomes and hexosomes display distinct sharp peaks. The relative positions of the peaks (“spacing”) allows for the elucidation of the symmetry of the structure. The interplanar distance (d) between two reflecting planes may be calculated using the formula d=(2π)/q, where q is the absolute position of the peak. This, in turn allows for the calculation of the lattice parameter (a), the size of the unit cell, to be calculated.

[4] = SAXS / synchrotron SAXS of dispersed nanoparticles; format: physicochemical; details: dispersion with PEG stabiliser
Procedure: as §1
Small angle X-ray scattering patterns of emulsions and liposomes display large broad peaks while liquid crystalline phases of highly ordered nanostructured particles such as cubosomes and hexosomes display distinct sharp peaks. The relative positions of the peaks (“spacing”) allows for the elucidation of the symmetry of the structure. The interplanar distance (d) between two reflecting planes may be calculated using the formula d=(2π)/q, where q is the absolute position of the peak. This, in turn allows for the calculation of the lattice parameter (a), the size of the unit cell, to be calculated. […]

Row | Substance | Appearance of the Lyotropic phase at excess water (25° C.-50° C.) [1] | maximum reduction [2] | lattice parameter, hydrated ([3]; excess water, 25° C.) | phase, hydrated ([3]; excess water, 25° C.) | lattice parameter, hydrated ([3]; excess water, 37° C.) | phase, hydrated ([3]; excess water, 37° C.) | lattice parameter, hydrated ([3]; excess water, temperature not given) | lattice parameter, hydrated ([3]; heated to 37° C.) | lattice parameter, neat non-hydrated ([3]; listed as CP-bis (suc-Lys(oleoyl)-ethanolamide)) | lattice parameter, neat non-hydrated ([3]; listed as CP-bis (suc-lys (oleoyl) ethanolamide)) | POM observation on exposure to water [1] | POM observation on exposure to water ([1]; listed as CP-bis(suc-Lys(oleoyl) ethanolamide)) | lattice parameter of dispersed nanoparticles [4] | structure of dispersed nanoparticles [4]
1 | cis, trans [Oxaliplatin-bis (suc-PEG3-myristoyl), cis, trans [Pt ((1R, 2R)-1,2 cyclohexanediamine-N,N′) (oxalate(2-)O,O′) (succinoylamidetriethyleneglycol-myristoyl)2]] | Lamellar |  |  |  |  |  |  |  |  |  |  |  |  | 
2 | cis, trans [Oxaliplatin-bis (myristoyl), cis, trans [Pt ((1R, 2R)-1,2 cyclohexanediamine-N,N′) (oxalate(2-)O,O′) (myristoyl)2]] | No distinct mesophase | 80% |  |  |  |  |  |  |  |  |  |  |  | 
3 | (cis,cis,trans-(PtCl2(NH3)2) [(Nα-succinoyl)-(Nε-oleoyl)-lysinoyl-ethanolamide)]2 [CP-bis (suc-lys(oleoyl)-ethanolamide)] |  |  | 121.38 ± 0.5 Å | la3d | 121.1 ± 0.5 Å | la3d | 121.38±0.5 Å | 121.1±0.5 Å^−1 | 47.0±0.5 Å | 47.0 ± 0.5 Å | dark band at the boundary between the amphiphile and water suggesting the formation of possible cubic phases | formed a dark band when exposed to water, possibly due to the formation of a cubic phase | ~121.4 Å | cubosomes with la3d symmetry

From patent US12194014B2, “Platinum-based amphiphile prodrugs” (NANOMED HOLDINGS PTY LTD, priority 2018, dated 2025)
